# What was measured:
# Mu-type opioid receptor = Mu-type opioid receptor (Homo sapiens, UniProt P35372); test: Displacement of [125I]FK33824 from human cloned mu opioid receptor
# [1] = target: Kappa-type opioid receptor (Homo sapiens, UniProt P41145); test: Displacement of [125I]D-pro10-dynorphin from human cloned kappa opioid receptor
Structure (SMILES),Ki (Mu-type opioid receptor) [nM],Ki [1] [nM]
CCN(CC)C(=O)c1ccc(N(c2cccc(OC)c2)C2CCN(CCc3ccoc3)CC2)cc1,1300,4990
CCN(CC)C(=O)c1ccc(N(c2cccc(O)c2)C2CCN(CC(C)c3ccccc3)CC2)cc1 (stereo not given),648,2190
CCN(CC)C(=O)c1ccc(N(c2cccc(O)c2)C2CCN(CCc3cnc[nH]3)CC2)cc1,309,1450
C=CCCN1CCC(N(c2ccc(C(=O)N(CC)CC)cc2)c2cccc(O)c2)CC1,130,98
CCN(CC)C(=O)c1ccc(N(c2cccc(O)c2)C2CCN(CCc3ccsc3)CC2)cc1,127,495
CCN(CC)C(=O)c1ccc(N(c2cccc(O)c2)C2CCN(CCc3cccc(F)c3)CC2)cc1,472,1360
CCN(CC)C(=O)c1ccc(N(c2cccc(O)c2)C2CCN(CCc3ccccn3)CC2)cc1,205,2040
CCN(CC)C(=O)c1ccc(N(c2cccc(O)c2)C2CCN(CCc3ccccc3F)CC2)cc1,162,967
CCN(CC)C(=O)c1ccc(N(c2cccc(O)c2)C2CCN(CCC3CCCCC3)CC2)cc1,289,726
CCN(CC)C(=O)c1ccc(N(c2cccc(O)c2)C2CCN(CCc3ccncc3)CC2)cc1,1550,4570
CCN(CC)C(=O)c1ccc(N(c2cccc(O)c2)C2CCN(CCc3ccco3)CC2)cc1,115,263
CCN(CC)C(=O)c1ccc(N(c2cccc(O)c2)C2CCN(CCc3ccoc3)CC2)cc1,177,121
CCN(CC)C(=O)c1ccc(N(c2cccc(OC)c2)C2CCN(CCc3ncc[nH]3)CC2)cc1,4440,> 10000
CCN(CC)C(=O)c1ccc(N(c2cccc(O)c2)C2CCN(CCC3CC3)CC2)cc1,126,508
CCN(CC)C(=O)c1ccc(N(c2cccc(O)c2)C2CCN(CCc3cccs3)CC2)cc1,181,453
CCN(CC)C(=O)c1ccc(N(c2cccc(OC)c2)C2CCN(CCc3ccccc3)CC2)cc1,2110,3610
CCN(CC)C(=O)c1ccc(N(c2cccc(OC)c2)C2CCN(CCc3cccs3)CC2)cc1,1960,6400
CCN(CC)C(=O)c1ccc(N(c2cccc(O)c2)C2CCN(CCc3ncc[nH]3)CC2)cc1,1250,1190
CCN(CC)C(=O)c1ccc(N(c2cccc(OC)c2)C2CCN(CCc3ccco3)CC2)cc1,2530,7080
CCN(CC)C(=O)c1ccc(N(c2cccc(O)c2)C2CCN(CCc3nccn3C)CC2)cc1,772,4600
